Target: Cholinesterase (Homo sapiens, UniProt P06276)
Test: Inhibition of human plasma BChE pretreated for 30 mins by Ellman technique
Format: cell-free

Amino acid sequences for entries named in this document (tags omitted).
UniProt P06276, whole entry: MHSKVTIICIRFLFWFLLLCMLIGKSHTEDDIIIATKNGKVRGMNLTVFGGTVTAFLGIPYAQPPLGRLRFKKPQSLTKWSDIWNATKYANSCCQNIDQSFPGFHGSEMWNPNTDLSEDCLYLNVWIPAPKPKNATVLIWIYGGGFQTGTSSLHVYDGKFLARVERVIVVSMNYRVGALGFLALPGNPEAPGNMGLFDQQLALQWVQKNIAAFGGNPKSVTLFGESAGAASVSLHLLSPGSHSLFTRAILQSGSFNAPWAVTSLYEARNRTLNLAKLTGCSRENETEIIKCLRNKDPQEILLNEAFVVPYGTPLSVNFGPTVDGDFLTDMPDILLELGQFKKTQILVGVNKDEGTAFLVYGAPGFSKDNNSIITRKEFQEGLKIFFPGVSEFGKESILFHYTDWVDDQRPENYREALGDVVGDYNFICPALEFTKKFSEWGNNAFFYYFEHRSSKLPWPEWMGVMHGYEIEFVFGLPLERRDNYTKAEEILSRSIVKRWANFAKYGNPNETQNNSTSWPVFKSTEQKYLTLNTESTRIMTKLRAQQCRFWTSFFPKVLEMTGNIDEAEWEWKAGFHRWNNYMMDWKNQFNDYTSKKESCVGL

CC(C)c1ccc(NC(=O)Oc2ccc3c(c2)[C@]2(C)CCN(C)C2N3C)cc1 (stereo partly specified)
IC50: 51 nM

From ChEMBL document CHEMBL1177652 (Bioorg Med Chem, 2010)
